Measurements: publication PMC10313921, “A living ex vivo platform for functional, personalized brain cancer diagnosis” (Cell Reports Medicine, 2023)

System: MB231Br (breast cancer metastasis to brain)
Test: Drug screening of MB231Br tumor foci on OBSCs
Assay type: cell-based, human

## CC(=O)Nc1cccc(-n2c(=O)n(C3CC3)c(=O)c3c(Nc4ccc(I)cc4F)n(C)c(=O)c(C)c32)c1 [Trametinib]
Dose required to kill 10% of the tumor
  EC10: 32.3 nM
Dose required to kill 25% of the tumor
  EC25: 80.6 nM
